Measurements published in ChEMBL document CHEMBL5143721, “Novel Hydroxychalcone-Based Dual Inhibitors of Aldose Reductase and α-Glucosidase as Potential Therapeutic Agents against Diabetes Mellitus and Its Complications” (J Med Chem, 2022).

How the values were obtained:
[1] = Antioxidant activity assessed as DPPH radical scavenging activity at 50 uM incubated for 30 mins by DPPH assay relative to control; assay type: functional
[2] = Antioxidant activity assessed as DPPH radical scavenging activity at 100 uM incubated for 30 mins by DPPH assay relative to control; assay type: functional

## Cc1c(C)c2c(c(C)c1O)CCC(C)(C(=O)O)O2 (configuration not stated)
[1]
  Activity: 94.4%
[2]
  Activity: 98%
